Experimental data from PubChem BioAssay AID893 (National Center for Advancing Translational Sciences (NCATS), 2007).
The entries are a selection whose mix differs from that of the whole data set. Records with an inconclusive call do not appear. Active and inactive are the calls of the source. Calls follow the shape of the dose curve; as a rule, active = well fitted inhibition curve with a large enough effect; inconclusive = small, poorly fitted or top-dose-only effect; inactive = no such curve, though single readings can be large or run the other way.

target: 3-hydroxyacyl-CoA dehydrogenase type-2 (Homo sapiens) (UniProt Q99714); assay: qHTS Assay for Inhibitors of HSD17B4, hydroxysteroid (17-beta) dehydrogenase 4; conditions: recombinant HSD17B10, NADH fluorescence kinetic; also: nearly all actives have a fitted effect of over 70% in size
Text: Assay Overview: NIH Molecular Libraries Screening Centers Network [MLSCN] NIH Chemical Genomics Center [NCGC] Structural Genomics Consortium [SGC] Grant number: None HADH2: Hydroxyacyl-Coenzyme A dehydrogenase, type II, was supplied by researchers at the Structural Genomics Consortium, Oxford University lab (PI Udo Oppermann). The mitochondrial enzyme 17-hydroxysteroid dehydrogenase type 10 (HSD17-10) previously classified as type II hydroxyacyl-CoA dehydrogenase (HADH2) catalyzes the NAD+ dependent oxidation of a variety of substrates including acyl-CoAs, androgens and neurosteroids as well as bile acids(Shafqat N, Marschall HU, Filling C, et al. Biochemical Journal. 2003;376(Pt 1):49-60). […] The enzyme was produced by E.coli fermentation as His-tagged recombinant for the purpose of X-ray structure determination, and had been mass-spectrometry characterized. Inhibition of HADH2 activity was screened by utilizing beta-hydroxybutyryl coenzyme A as an electron donor and NAD+ as an electron acceptor/cofactor. An increase in the fluorescence intensity due to conversion of NAD+ to NADH was used to measure the enzyme activity.
Assay Protocol: Buffer: 100 mM Tris-HCl pH 9.0, containing 0.01 % Tween-20. Reagents/Controls: Buffer in columns 3 and 4 as negative control (no enzyme). Substrate/cofactor solution: 1 mM NAD+ and 90 uM beta-hydroxybutyryl coenzyme A (Sigma-Aldrich, St. Louis, MO) final concentrations dispensed throughout the plate. Enzyme: 20 nM HADH2 final concentration in columns 1, 2, 5-48. Column 1 is neutral (100% activity). Column 2 contained titration of apomorphine (Sigma-Aldrich, A 4393, PubChem CID 2215, top concentration 500 uM, then 1:2 dilution in duplicate) Assay Steps: Three uL of enzyme were dispensed to 1536-well Greiner black solid bottom plates. […] The plates were immediately transferred to and read every 30 seconds for 4 min on ViewLux High-throughput CCD imager (Perkin-Elmer) using 360 nm excitation and 450 nm emission fluorescence protocol. The fluorescence intensity difference between the last and the first time points was used to compute reaction progress.
Potency is read from the fitted curve at half-maximal effect.

Potency, active:
COc1cc2nc(N(C)CCCNC(=O)C3CCCO3)nc(N)c2cc1OC (stereo not drawn) 25.1 µM
COc1cc2nc(N(C)CCCNC(=O)[C@@H]3CCCO3)nc(N)c2cc1OC 12.6 µM
O=c1ccc2ccc(O)cc2o1 25.1 µM
